Test results as given in PubChem BioAssay AID538 (PCMD, 2006).
The list shows a part of the results, in another mix than the full data. The source made the active and inactive calls.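 Rule for the calls: active = inhibition above 20% in each of the two 10-compound mixture wells holding the compound; inactive = the rest.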

Sequences of proteins named here, by UniProt entry; tags and fusion partners are left off. Residues count along the entry.
UniProt P09871, 16-437 limits assumed: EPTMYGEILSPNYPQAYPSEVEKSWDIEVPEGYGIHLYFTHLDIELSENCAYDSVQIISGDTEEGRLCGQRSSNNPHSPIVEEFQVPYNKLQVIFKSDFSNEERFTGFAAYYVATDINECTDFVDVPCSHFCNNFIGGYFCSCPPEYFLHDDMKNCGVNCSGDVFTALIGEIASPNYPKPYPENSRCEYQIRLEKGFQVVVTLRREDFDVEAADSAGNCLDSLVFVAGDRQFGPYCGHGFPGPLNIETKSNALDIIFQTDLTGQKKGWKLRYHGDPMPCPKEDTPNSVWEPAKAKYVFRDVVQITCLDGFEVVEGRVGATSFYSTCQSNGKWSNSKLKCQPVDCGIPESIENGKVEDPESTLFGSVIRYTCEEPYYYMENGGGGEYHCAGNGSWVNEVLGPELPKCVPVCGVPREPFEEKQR
UniProt P09871, 438-688 limits assumed: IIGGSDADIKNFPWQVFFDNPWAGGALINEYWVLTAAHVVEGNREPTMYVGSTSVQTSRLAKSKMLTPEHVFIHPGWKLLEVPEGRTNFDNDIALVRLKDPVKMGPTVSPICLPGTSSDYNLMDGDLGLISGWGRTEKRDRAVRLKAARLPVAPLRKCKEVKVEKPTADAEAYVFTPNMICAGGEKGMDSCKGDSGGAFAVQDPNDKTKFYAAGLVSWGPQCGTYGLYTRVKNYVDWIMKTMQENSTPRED

molecular target: Complement C1s subcomponent (Homo sapiens) (UniProt P09871); assay: complement C1s protease inhibitors, primary screen, biochemical, 10-compound mixtures (AID 538); conditions: purified C1s, fluorogenic AMC substrate, pooled mixtures; screened at 5 µM (by protocol);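 note: 0% = enzyme wells lacking compound mixture and 100% = no-enzyme blank wells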

| SMILES | mean inhibition % of two 10-compound mixtures (active compounds read high) |
| --- | --- |
| CP(=O)(Nc1ccc2c(c1)OCCO2)Oc1ccccc1 (stereo not drawn) | inactive: 7.38% |
| Cc1ccccc1NP(C)(=O)Nc1ccccc1C | inactive: -3.52% |
| CCOP(C)(=S)SCC(=O)NC(C)(CC)C(=O)O (stereo not drawn) | inactive: -0.06% |
| CN(C)CCOC(=O)C(O)(c1ccccc1)C1CCCCC1 (stereo not drawn) | inactive: -5.05% |
| CP(=O)(Nc1ccccc1F)Oc1ccccc1 (stereo not drawn) | inactive: 13.2% |
| CP(=O)(Nc1ccccn1)Oc1ccccc1 (stereo not drawn) | inactive: 8.76% |
| Cc1nc2ccc3ccccc3c2o1.O=[N+]([O-])c1cc([N+](=O)[O-])c(O)c([N+](=O)[O-])c1 | inactive: -21.1% |
| COc1ccccc1OP(C)(=O)Nc1ccc(C)c(C)c1 (stereo not drawn) | inactive: 11% |
| CCN(CC)CC(O)COC(=O)C(O)(c1ccccc1)C1CCCCC1 (stereo not drawn) | inactive: -28.9% |
| COc1ccccc1OP(C)(=O)Nc1c(C)n(C)n(-c2ccccc2)c1=O (stereo not drawn) | inactive: -24.4% |
| CP(=O)(Oc1ccccc1)N1CCOC1=O (stereo not drawn) | inactive: -19.2% |
| CCOP(C)(=S)SCC(=O)NC(C)C(=O)O (stereo not drawn) | inactive: -16.2% |
| CP(=O)(NC(=O)Nc1ccccc1)Oc1ccccc1 (stereo not drawn) | inactive: -7.62% |
| CP(=S)(Nn1cnnc1)Oc1ccccc1 (stereo not drawn) | inactive: 2.06% |
| Cc1ccc(NP(C)(=O)Oc2ccccc2)c(C)c1 (stereo not drawn) | inactive: -0.575% |
| COc1ccccc1OP(C)(=O)Nc1ccc(C)cc1 (stereo not drawn) | inactive: 1.35% |
| Cc1ccc(C)c(NP(C)(=O)Oc2ccccc2)c1 (stereo not drawn) | inactive: -3.23% |
| Cc1nc2ccc3ccccc3c2s1.O=[N+]([O-])c1cc([N+](=O)[O-])c(O)c([N+](=O)[O-])c1 | inactive: 18.5% |
